Screens: PubChem, several laboratories
Most compounds without a hit are left out; they make up all but 2.1% or so of the library.
ERp5 block: ERp5 (human) disulfide isomerase inhibition; 0.05% of 350,000 active; inhibition, % at 9.99 µM; AID 651711; ERp5 insulin aggregation, absorbance 650 nm, 90 min; Q15084;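 active = mean replicate inhibition above about 25%, with every replicate also reaching it, limit read from the data, passing the limit was not always enough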
Yeast UUG start-1: alters start codon recognition fidelity in yeast | S. cerevisiae UUG-firefly luciferase reporter, luminescence/redox ratio | activity score, % at 18.7 µM | hit rate 0.13% among 350,000 | AID 602363;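 active means replicate mean at a twofold rise or more, about +100% in these data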;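 further: firefly luciferase made from a UUG start codon reports start codon fidelity; reporter light over untreated wells divided by growth signal over untreated wells; some hits fall short of that in this replicate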
NR1D1 modulator: Rev-erb alpha (human) modulation | 0.79% of 370,000 active | P20393 | activity, % at 10 µM | Rev-erbα–FITC-DNA binding, fluorescence polarization, 90 min;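 active = activity above about 14%, limit read from the data; passing the limit was not always enough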;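 also: 0% = DMSO wells with 35 nM protein and 100% = DMSO wells with 750 nM protein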
INS-1E GSIS act: GLuc luminescence reporter in INS-1E cells, primary screen for activators of glucose-dependent secretion of insulin | activation, % at 16.6 µM | AID 743287 | 0.61% of 370,000 active | INS-1E GLuc reporter insulin secretion, 2-3 h;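 active = lowest replicate activation of at least 40%, so every replicate reaches that level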;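 also: 0% = median of neutral control wells and 100% = median of IBMX positive control wells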
PDI inh: PDI (human) enzyme inhibition; 0.052% of 350,000 active; inhibition, % at 10 µM; PDI insulin aggregation turbidity, A650, 90 min; P07237; AID 588391;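 active = mean inhibition across replicates of 30% or more, whatever share of single replicates reach that level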
SMARCA2 act: SMARCA2 function activation, primary screen. MG213 cells, MMTV-luciferase reporter, dexamethasone, overnight. activation, % at 9.1 µM. 1% of 370,000 active. AID 652017; in the data active = activation above about 7.8%;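 also: 0% = vehicle wells and 100% = reference activator wells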
Yeast UUG start-2: yeast start codon fidelity modulation. shares compounds with Yeast UUG start-1. S. cerevisiae UUG-start firefly luciferase, luminescence, 4 h; 100% means double the DMSO signal. activation, % at 38 µM. 540 tested, under 10 active. AID 652061;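 active = signal increase whose fitted curve reaches an absolute level of 40 at a concentration under 10 µM; inactive = activity opposite to the expected increase, or the rest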
* = called active by the depositor; i = inactive; · = no result given; ! = repeats disagree.

ERp5 block	Yeast UUG start-1	NR1D1 modulator	INS-1E GSIS act	PDI inh	SMARCA2 act	Yeast UUG start-2	canonical_smiles
-4	-16	-4	8	-4	-1	-13	O=C(Cn1cc(C(=O)C2CCCCC2)c2ccccc21)NCC1CCCO1 (stereo not drawn)
·	·	·	7	·	·	·	C[C@@H]1CN([C@H](C)CO)C(=O)Cc2cc(NS(=O)(=O)c3ccc(Cl)cc3)ccc2O[C@H]1CN(C)C(=O)Nc1ccc2c(c1)OCO2
·	-23	-4	·	-8	-1	-5	O=C(Cn1cc(C(=O)c2cccs2)c2ccccc21)NCC1CCCO1 (stereo not drawn)
7	26	·	5	·	·	·	CN(C[C@@H]1[C@H](c2ccccc2)[C@H](CO)N1C(=O)c1ccccc1)C(=O)C1CC1
12	156*	·	7	·	·	i	CN(C[C@H]1[C@H](c2ccccc2)[C@@H](CO)N1C(=O)c1ccccc1)C(=O)C1CC1
-4	·	·	-8	·	·	·	O=C1CN(Cc2ccccc2)C[C@H]2[C@H](c3ccc(-c4ccccc4F)cc3)[C@H](CO)N12
0	200*!	-3	-3	-2	-2	i	COc1ccccc1-c1cnc2c(c1)C(=O)N([C@@H](C)CO)C[C@@H](C)[C@H](CN(C)C(=O)c1cccnc1)O2
-4	-9	·	-2	·	·	·	COc1ccccc1-c1cnc2c(c1)C(=O)N([C@H](C)CO)C[C@@H](C)[C@H](CN(C)Cc1ccncc1)O2
-4	250*	·	-19	·	·	i	C[C@H](CO)N1C[C@H](C)[C@@H](CN(C)Cc2cncnc2)Oc2ncc(/C=C/c3ccccc3)cc2C1=O
-1	137*	·	9	·	·	i	COc1ccccc1-c1cnc2c(c1)C(=O)N([C@@H](C)CO)C[C@@H](C)[C@@H](CN(C)Cc1ccncc1)O2
-2	110*	·	10	·	·	i	C[C@H](CO)N1C[C@H](C)[C@H](CN(C)Cc2ccncc2)Oc2ncc(-c3cccc(C#N)c3)cc2C1=O
2	-5	·	11	·	·	·	COc1ccccc1-c1cnc2c(c1)C(=O)N([C@H](C)CO)C[C@H](C)[C@H](CN(C)C(=O)c1cccnc1)O2
-4	2	·	11	·	·	·	Cc1noc(C)c1NC(=O)N(C)C[C@H]1Oc2ccc(N(C)C)cc2CC(=O)N([C@@H](C)CO)C[C@H]1C
8	·	·	-7	·	·	·	O=C(Nc1cccc(F)c1)N1CC(=O)N2[C@@H](CO)[C@H](c3ccc(C#Cc4cccnc4)cc3)[C@@H]2C1
-2	145*	·	-4	·	·	i	COc1ccc(-c2cnc3c(c2)C(=O)N([C@@H](C)CO)C[C@@H](C)[C@H](CN(C)Cc2cccnc2)O3)cc1
-6	166*	·	25	·	·	i	C[C@@H]1CN([C@@H](C)CO)C(=O)c2cc(-c3cccnc3)cnc2O[C@H]1CN(C)C(=O)c1ccccc1F
·	-20	3	·	10	-4	10	COc1ccc(N2CCN(C(=O)Cc3nn(C)c(=O)c4ccccc34)CC2)cc1
·	134*	8	·	-3	-3	13	COc1ccc(OC)c(NC(=O)Cn2cc(C(=O)c3ccco3)c3ccccc32)c1
·	-13	1	·	3	-7	-4	Cn1nc(CC(=O)Nc2cccc3ncccc23)c2ccccc2c1=O
0	-24	4	-15	-1	4	1	Cc1nn(CC(=O)N2CCN(c3ccccc3)CC2)c(=O)c2ccccc12
-2	4	-3	-20	-4	-5	·	COc1ccccc1NC(=O)Cn1cc(C(=O)c2ccco2)c2ccccc21
·	·	·	15	·	·	·	C/C=C/c1cnc2c(c1)C(=O)N([C@H](C)CO)C[C@H](C)[C@H](CN(C)C(=O)C1CCC1)O2
-3	1	·	1	·	·	·	C[C@H]1CCCCO[C@H](CN(C)S(=O)(=O)c2ccc(Cl)cc2)[C@@H](C)CN([C@@H](C)CO)C(=O)c2cc(NS(=O)(=O)c3ccc(F)cc3)ccc2O1
-2	-1	·	-2	·	·	·	COc1ccc(NC(=O)Nc2ccc3c(c2)CC(=O)N([C@@H](C)CO)C[C@@H](C)[C@H](CN(C)C(=O)Nc2ccc(F)cc2)O3)cc1
-15	3	3	-9	-5	·	·	COc1cc(NC(=O)Cc2nn(C)c(=O)c3ccccc23)cc(OC)c1OC

Whole records, looked up by structure:
C[C@H](CO)N1C[C@H](C)[C@@H](CN(C)Cc2cncnc2)Oc2ncc(/C=C/c3ccccc3)cc2C1=O in the list: ERp5 block: -4; Yeast UUG start-1: 250*; NR1D1 modulator: ·; INS-1E GSIS act: -19; PDI inh: ·; SMARCA2 act: ·; Yeast UUG start-2: i
COc1ccc(OC)c(NC(=O)Cn2cc(C(=O)c3ccco3)c3ccccc32)c1 in the list: ERp5 block: ·; Yeast UUG start-1: 134*; NR1D1 modulator: 8; INS-1E GSIS act: ·; PDI inh: -3; SMARCA2 act: -3; Yeast UUG start-2: 13
COc1ccccc1-c1cnc2c(c1)C(=O)N([C@H](C)CO)C[C@@H](C)[C@H](CN(C)Cc1ccncc1)O2 in the list: ERp5 block: -4; Yeast UUG start-1: -9; NR1D1 modulator: ·; INS-1E GSIS act: -2; PDI inh: ·; SMARCA2 act: ·; Yeast UUG start-2: ·

Following part:
ERp5 block	Yeast UUG start-1	NR1D1 modulator	INS-1E GSIS act	PDI inh	SMARCA2 act	Yeast UUG start-2	canonical_smiles
·	-11	0	·	-2	-4	10	COc1ccc(OC)c(NC(=O)Cc2nn(C)c(=O)c3ccccc23)c1
·	610*	7	·	-8	0	-14	O=C(Nc1ccc(Nc2ccccc2)cc1)c1ccco1
7	-6	4	5	0	2	·	O=C(Nc1ccc(NC(=O)c2ccco2)cc1)c1ccco1
·	4	·	-2	·	·	·	O=C(Cc1ccccc1)N1C[C@@H]2[C@H](c3ccccc31)[C@H](CO)N2C(=O)C1CCOCC1
-3	116*	·	2	·	·	i	O=C(Cc1ccccc1)N1C[C@H]2[C@@H](c3ccccc31)[C@@H](CO)N2C(=O)C1CCOCC1
·	-16	0	·	1	0	·	Cc1cc(OCCOCCNC(C)C)cc(C)c1Cl
·	229*	0	13	-3	-4	8	Cc1cc(OCCCCNC(C)C)cc(C(C)C)c1
-1	16	·	25	·	·	·	O=C(C[C@@H]1CC[C@@H]2[C@H](COC[C@H](O)CN2C(=O)c2ccccc2F)O1)N1CCN(c2ccccc2)CC1
-3	3	·	-8	·	·	·	COc1ccc(NC(=O)N(C)C[C@@H]2Oc3ccc(NC(=O)Cc4ccccc4)cc3CC(=O)N([C@H](C)CO)C[C@H]2C)cc1
·	549*	-4	·	-2	-2	18	COC1(OC)C(/C=C/c2ccc(C)cc2)C(C#N)(C#N)C1(OC)OC (stereo not drawn)
-3	·	-2	-14	-1	2	·	CCOc1ncccc1C(=O)OCC(=O)Nc1cc(S(=O)(=O)N(CC)CC)ccc1C
2	180*	-1	-10	-2	-3	1	CCN(CC)S(=O)(=O)c1ccc(C)c(NC(=O)COC(=O)C=C(C)C)c1
·	-4	-2	-1	-1	1	10	O=C(COC(=O)c1cc2ccccc2o1)c1ccccc1
1	3	·	1	·	·	·	COc1cccc(C#Cc2cnc3c(c2)C(=O)N([C@@H](C)CO)C[C@H](C)[C@@H](CN(C)C(=O)C2CCOCC2)O3)c1
-1	125*	·	8	·	·	i	COc1cccc(C#Cc2cnc3c(c2)C(=O)N([C@H](C)CO)C[C@H](C)[C@H](CN(C)C(=O)C2CCOCC2)O3)c1
5	162*!	-4	4	1	-7	i	C[C@@H]1CN([C@H](C)CO)C(=O)c2cc(C#CC3CCCCC3)cnc2O[C@H]1CN(C)Cc1cccnc1
2	121*!	-2	-13	-11	3	i	C[C@H]1CN([C@@H](C)CO)C(=O)c2cc(C#CCC3CCCC3)cnc2O[C@@H]1CN(C)C(=O)CC1CC1
6	6	·	-16	·	·	·	CCC(=O)N(C)C[C@H]1Oc2ncc(C#CCC3CCCC3)cc2C(=O)N([C@H](C)CO)C[C@@H]1C
